Binding of CDR-mutated scFvs to a peptide of the spike HR2 region

Reference: Li et al. 2023, doi:10.1038/s41467-023-39022-2. File: FLAb, binding data.

Antigen: PDVDLGDISGINAS, a 14-residue peptide of the SARS-CoV-2 spike HR2 region.

Each scFv is VH, three GGGGS repeats, VL, as in the parent Ab-14, and differs from it in the CDRs of the light chain only.
VH: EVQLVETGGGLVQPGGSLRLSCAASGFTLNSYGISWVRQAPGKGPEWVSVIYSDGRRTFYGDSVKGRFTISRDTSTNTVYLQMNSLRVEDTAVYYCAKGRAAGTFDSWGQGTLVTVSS
VL: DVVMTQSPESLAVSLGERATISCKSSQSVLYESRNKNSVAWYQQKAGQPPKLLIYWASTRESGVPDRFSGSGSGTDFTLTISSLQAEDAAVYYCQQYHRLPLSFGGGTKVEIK

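Designed CDR sequences, proposed from the first random library and measured here. Group labels follow the data file (Ctrl: baseline library sampled from a position-specific scoring matrix, with some repeated check sequences; Rand: our label for a block that the file lists under HC and that is probably the random mutants of the ten best first-round binders; GP: Gaussian process model; HC: hill climbing; Gen: genetic algorithm; Gibbs: Gibbs sampling; a sequence that several methods proposed may carry one label only). In AlphaSeq, yeast of one mating type display the scFv and yeast of the other type display the target. Mating (16 h, 30 °C) was followed by selection of diploids and sequencing of their barcodes. Read counts were normalised to the haploid input and turned into Kd by a linear fit to BCL2-family pairs of known affinity, for each replicate. Mating was done six times.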

Substitutions are numbered in sequence along the VL above, starting at 1 (not Kabat).
This list holds designs with at most six substitutions.
The Kd shown is the geometric mean over detected replicates; a lower Kd is a better binder.
"no signal" marks a missing value. The strain was present, yet no cells mated with the target were sequenced in any replicate, which points to weak or no binding.
In the paper, a design with two or fewer of six values counts as a poor binder.
Of ten entries with the parent sequence, four were seen in most replicates (averages 2.2 nM to 240 nM), three in one and three in none, so single entries are noisy.
Values of this round are not directly comparable with the first-round values of the same sequences.
Nonspecific signal, from three strains lacking the peptide, appeared in 4% of pairings of all light chain designs, centred on 430 nM (5% of these signals below 38 nM); values are not corrected for it. For each scFv, signals with the empty controls are counted beside the result.

Variant S25L+S28W+V29Q+S38N+W56S+S62M [GP_Gibbs] gave 700 pM (6 of 6 replicates; controls 0 of 18). With S103I [Ctrl] the result was 300 nM (4 of 6 replicates; controls 1 of 18). With S25E+V29H+W56G [GP_HC] the result was 1.0 nM (6 of 6 replicates; controls 2 of 18). Variant S25L+V29E+W56D+Q95Y+L102S [GP_HC] gave 300 nM (3 of 6 replicates; controls 0 of 18). Variant S28H+R34T+A57S [Ctrl] showed 110 nM (6 of 6 replicates; controls 2 of 18). For S25L+Y31M+N35W+W56D+T59Q+S62E [GP_Gibbs], the assay gave 1.2 nM (6 of 6 replicates; controls 1 of 18). Variant S25L+V29Q+L30D+W56N [GP_Gen] showed 540 pM (6 of 6 replicates; controls 0 of 18). For K24C+S26L+W56H+S62D+P101F+S103C [Rand], the assay gave no signal (0 of 6 replicates; controls 0 of 18).

For R34D+W56Q+S62K [Ctrl], the assay gave 1.0 nM (6 of 6 replicates; controls 1 of 18). Variant S25Q+S26I [Ctrl] showed no signal (0 of 6 replicates; controls 1 of 18). Variant S25L+V29E+N35V+W56N+T59Q [GP_Gen] showed 3.7 nM (6 of 6 replicates; controls 2 of 18). For S25L+S26A+W56N+T59Q [GP_Gen], the assay gave 600 pM (6 of 6 replicates; controls 1 of 18). For S25A+S26A+V29W+L30G+N37W+W56N [GP_Gibbs], the assay gave 700 pM (6 of 6 replicates; controls 0 of 18). With V29L+R99T [Ctrl] the result was 510 nM (3 of 6 replicates; controls 0 of 18). Variant S25M+R34A+W56D [Ctrl] gave 590 pM (6 of 6 replicates; controls 0 of 18). Variant S25W+S26E+Q27W+V29Q+W56N+T59L [GP_Gibbs] showed 1.1 nM (6 of 6 replicates; controls 1 of 18).

Variant S25L+Q27E+W56E+S62V [GP_Gen] showed 780 pM (6 of 6 replicates; controls 1 of 18). With S25I+N35L+W56H [Ctrl] the result was 1.8 nM (6 of 6 replicates; controls 2 of 18). With S25L+N35V+W56E+S58V [GP_Gibbs] the result was 2.6 nM (6 of 6 replicates; controls 0 of 18). Variant S25L+S28Q+W56N+S62Q [GP_Gen] showed 160 pM (6 of 6 replicates; controls 0 of 18). With S25E+Y31T+S33W+W56D [GP_HC] the result was 750 pM (6 of 6 replicates; controls 2 of 18). Variant S25L+S26R+S28Q+V29T+W56H+S62E [GP_HC] gave 8.2 nM (6 of 6 replicates; controls 0 of 18). Variant S25L+V29Q+S38N+W56S+T59H+S62H [GP_Gibbs] gave 1.0 nM (6 of 6 replicates; controls 3 of 18). For W56N+T59L [Ctrl], the assay gave 6.9 nM (6 of 6 replicates; controls 0 of 18).

With S25L+N35M+W56N+S62E [GP_Gen] the result was 300 pM (6 of 6 replicates; controls 1 of 18). With Q27I+V29Y+Y31A+K36E+W56E+S62Q [GP_HC] the result was 8.0 nM (6 of 6 replicates; controls 0 of 18). With S25L+S26M+Q27M+V29G+W56E+Q96D [GP_Gibbs] the result was 1.4 nM (6 of 6 replicates; controls 0 of 18). Variant Q27P+L30G+S33E+R34F+S38A+W56G [Ctrl] gave 3.9 nM (6 of 6 replicates; controls 0 of 18). Variant R34E+W56G+Q96S [Ctrl] showed 2.8 nM (6 of 6 replicates; controls 1 of 18). For S25L+Q27G+S38A+W56E [GP_Gen], the assay gave 600 pM (6 of 6 replicates; controls 0 of 18). Variant S26R+S33H+R34E [Ctrl] showed 180 nM (4 of 6 replicates; controls 1 of 18). For K24M+S25F+L30H+Q96V+H98A [Ctrl], the assay gave 480 nM (1 of 6 replicates; controls 0 of 18).

For Q27A+V29Y+K36T+W56E [GP_HC], the assay gave 1.3 nM (6 of 6 replicates; controls 1 of 18). Variant L30S+S33E+V39I [Ctrl] gave 18 nM (6 of 6 replicates; controls 0 of 18). Variant S25V+R34G+N35M+W56N+T59S [GP_HC] showed 930 pM (6 of 6 replicates; controls 2 of 18).

Repeated from above, the 6 best binders with a signal in all replicates:

| changes | group | Kd (apparent) | replicates with signal | signal with controls |
|---|---|---|---|---|
| S25L+S28Q+W56N+S62Q | GP_Gen | 160 pM | 6/6 | 0/18 |
| S25L+N35M+W56N+S62E | GP_Gen | 300 pM | 6/6 | 1/18 |
| S25L+V29Q+L30D+W56N | GP_Gen | 540 pM | 6/6 | 0/18 |
| S25M+R34A+W56D | Ctrl | 590 pM | 6/6 | 0/18 |
| S25L+Q27G+S38A+W56E | GP_Gen | 600 pM | 6/6 | 0/18 |
| S25L+S26A+W56N+T59Q | GP_Gen | 600 pM | 6/6 | 1/18 |